Measurements from US5427922A (Takeda Chemical Industries, Ltd., priority 1992, dated 1995).

Columns and labels:
[1] = biological target: Ang II type 1 receptor from human placenta (Homo sapiens, UniProt P30556); experiment: Radio-labeled Ang II binding activity in animal cells (COS7/pHARp306) expressing full-length Ang II type 1 receptor gene from human placenta; conditions: 10 μM agonist or antagonist added; 100 pM [125I]-Ang II; room temperature, 60 minutes; control (none) 84,148 cpm
[2] = biological target: Ang II type 1 receptor of human placental origin (Homo sapiens, UniProt P30556); experiment: Binding of radiolabeled Ang II (competition) using membrane fraction of CHO/pHARp306 cells; conditions: [125I]-Ang II, 22° C., 45 minutes
[3] = biological target: Ang II type 1 receptor of human heart origin (Homo sapiens, UniProt P30556); experiment: Binding of radiolabeled Ang II (competition) using membrane fraction of control CHO/pHARt306 cells; conditions: [125I]-Ang II, 22° C., 45 minutes

CC[C@H](C)[C@H](NC(=O)[C@H](Cc1ccc(O)cc1)NC(=O)[C@@H](NC(=O)[C@H](CCCNC(=N)N)NC(=O)[C@@H](N)CC(=O)O)C(C)C)C(=O)N[C@@H](Cc1c[nH]cn1)C(=O)N1CCC[C@H]1C(=O)N[C@@H](Cc1ccccc1)C(=O)N[C@@H](Cc1c[nH]cn1)C(=O)N[C@@H](CC(C)C)C(=O)O
Radioactivity (bound [125I]-labeled Ang II) [1]: 2,326 cpm
Competition; IC50 [-log(M)], column A (second; B in text) [2]: 6.99 -log(M)
Competition; IC50 [-log(M)] [3]: 6.44 -log(M)
